Test results published in patent US20200010814A1, “NOVEL MONOOXYGENASE AND UTILIZATION THEREOF” (KANEKA CORPORATION, priority 2017, published 2020).

Key:
[1] = test system: NADH; experiment: purified protein, by the assay type; details: pH 7.5
[2] = test system: NADPH; experiment: purified protein, by the assay type; details: pH 7.5

For peg.801 (Rhodococcus wratislaviensis), the Km [1] was 0.0082 mM and the Km [2] was 6.2 mM.
